Target: human recombinant butyrylcholinesterase (huBChE) (Homo sapiens, UniProt P06276)
Assay: biochemical
Details: not given

Chains of the proteins cited; added tags and fusions are not shown. Residues count along the entry.
UniProt P06276, 29-602: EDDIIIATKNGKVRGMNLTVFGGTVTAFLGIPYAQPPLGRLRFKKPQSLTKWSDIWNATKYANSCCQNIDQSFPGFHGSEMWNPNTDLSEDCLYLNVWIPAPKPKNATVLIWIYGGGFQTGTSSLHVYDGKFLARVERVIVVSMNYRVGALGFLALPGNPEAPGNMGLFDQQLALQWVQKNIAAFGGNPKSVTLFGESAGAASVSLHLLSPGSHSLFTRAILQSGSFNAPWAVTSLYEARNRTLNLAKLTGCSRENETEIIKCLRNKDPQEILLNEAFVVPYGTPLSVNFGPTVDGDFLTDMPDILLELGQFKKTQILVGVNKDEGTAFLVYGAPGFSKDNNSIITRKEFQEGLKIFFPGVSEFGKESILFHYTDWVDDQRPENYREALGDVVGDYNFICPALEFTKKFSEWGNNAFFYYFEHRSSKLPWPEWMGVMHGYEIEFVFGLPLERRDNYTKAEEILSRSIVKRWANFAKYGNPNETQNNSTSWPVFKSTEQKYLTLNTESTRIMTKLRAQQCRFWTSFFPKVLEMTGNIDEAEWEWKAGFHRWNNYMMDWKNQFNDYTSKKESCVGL

With CN(C)CCN(CC1CCCN(C2Cc3ccccc3C2)C1)C(=O)c1ccc2cccnc2c1O (centres unmarked) the IC50 was 0.0132 ± 0.00061 µM.

Same assay, conditions: Table 2, formula (II); substrate BTCI 500 μM, 300 s preincubation; read-out: IC50 ± STD (μM) huBChE

Point of comparison: COCCCN(CC1CCCN(Cc2ccccc2)C1)S(=O)(=O)c1ccc2ccccc2c1 (centres unmarked), IC50 0.0144 ± 0.0008 µM. Against it:
- COCCN(CC1CCN(C2Cc3ccccc3C2)CC1)S(=O)(=O)c1ccc2ccccc2c1 — 3.6-fold higher, 0.0525 ± 0.002 µM
- COCCCN(CC1CCN(C2Cc3ccccc3C2)CC1)S(=O)(=O)c1ccc2ccccc2c1 — 4.9-fold higher, 0.0712 ± 0.0019 µM
- COCCCN(CC1CCN(Cc2ccccc2)CC1)S(=O)(=O)c1ccc2ccccc2c1 — within 1.5-fold, 0.0193 ± 0.0037 µM
- COCCN(CC1CCN(Cc2ccccc2)CC1)S(=O)(=O)c1ccc2ccccc2c1 — 2.7-fold higher, 0.0394 ± 0.0028 µM
- COCCN(CC1CCCN(C2Cc3ccccc3C2)C1)S(=O)(=O)c1ccc2ccccc2c1 (centres unmarked) — 3.7-fold higher, 0.053 ± 0.004 µM
- COCCN(CC1CCCN(C2Cc3ccccc3C2)C1)S(=O)(=O)c1cccc(N)c1 (centres unmarked) — 14-fold higher, 0.197 ± 0.008 µM
- O=S(=O)(NCC1CCN(Cc2ccccc2)CC1)c1ccc2ccccc2c1 — 14-fold higher, 0.195 ± 0.017 µM
- O=S(=O)(NCC1CCCN(Cc2ccccc2)C1)c1ccc2ccccc2c1 (centres unmarked) — 4-fold higher, 0.0569 ± 0.0098 µM
- CN(CC1CCCN(Cc2ccccc2)C1)S(=O)(=O)c1ccc2ccccc2c1 (centres unmarked) — 1.7-fold higher, 0.025 ± 0.0038 µM
